The values that follow come from PMC2949283 (The Biochemical journal, 2009).

Amino acid sequences for entries named in this document (tags omitted). Residues count along the entry.
UniProt P22303, 32-614 F369A: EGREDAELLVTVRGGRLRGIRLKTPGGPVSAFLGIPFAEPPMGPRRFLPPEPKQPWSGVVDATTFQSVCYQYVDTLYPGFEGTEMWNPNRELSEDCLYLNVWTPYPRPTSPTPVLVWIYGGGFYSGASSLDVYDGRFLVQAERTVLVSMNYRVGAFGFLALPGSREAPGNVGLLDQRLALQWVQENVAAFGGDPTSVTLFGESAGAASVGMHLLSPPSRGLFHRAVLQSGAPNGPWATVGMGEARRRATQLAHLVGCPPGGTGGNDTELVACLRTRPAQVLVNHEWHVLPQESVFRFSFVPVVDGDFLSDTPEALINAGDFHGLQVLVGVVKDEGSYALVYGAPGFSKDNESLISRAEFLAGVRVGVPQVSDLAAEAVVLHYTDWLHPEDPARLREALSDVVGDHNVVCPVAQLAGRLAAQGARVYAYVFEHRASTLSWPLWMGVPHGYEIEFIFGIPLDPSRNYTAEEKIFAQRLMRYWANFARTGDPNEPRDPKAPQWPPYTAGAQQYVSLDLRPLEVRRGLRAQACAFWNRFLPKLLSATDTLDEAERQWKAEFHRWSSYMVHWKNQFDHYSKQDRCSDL
UniProt P22303, 32-614 W117A: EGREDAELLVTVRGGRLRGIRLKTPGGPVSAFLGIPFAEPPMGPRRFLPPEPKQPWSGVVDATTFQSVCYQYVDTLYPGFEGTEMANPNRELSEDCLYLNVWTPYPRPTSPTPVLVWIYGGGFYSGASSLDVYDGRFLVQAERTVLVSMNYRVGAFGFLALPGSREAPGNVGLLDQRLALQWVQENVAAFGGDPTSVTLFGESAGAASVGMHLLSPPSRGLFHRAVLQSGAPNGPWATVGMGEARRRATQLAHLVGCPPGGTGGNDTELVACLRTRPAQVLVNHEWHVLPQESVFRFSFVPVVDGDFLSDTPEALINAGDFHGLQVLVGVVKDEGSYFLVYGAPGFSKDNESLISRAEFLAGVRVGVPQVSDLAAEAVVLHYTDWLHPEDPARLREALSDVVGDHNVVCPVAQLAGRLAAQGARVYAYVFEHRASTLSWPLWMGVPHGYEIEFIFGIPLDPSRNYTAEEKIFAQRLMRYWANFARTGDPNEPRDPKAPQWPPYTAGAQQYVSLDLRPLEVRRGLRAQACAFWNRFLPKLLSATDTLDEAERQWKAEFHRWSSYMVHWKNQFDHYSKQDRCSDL
UniProt P22303, 32-614 Y368A: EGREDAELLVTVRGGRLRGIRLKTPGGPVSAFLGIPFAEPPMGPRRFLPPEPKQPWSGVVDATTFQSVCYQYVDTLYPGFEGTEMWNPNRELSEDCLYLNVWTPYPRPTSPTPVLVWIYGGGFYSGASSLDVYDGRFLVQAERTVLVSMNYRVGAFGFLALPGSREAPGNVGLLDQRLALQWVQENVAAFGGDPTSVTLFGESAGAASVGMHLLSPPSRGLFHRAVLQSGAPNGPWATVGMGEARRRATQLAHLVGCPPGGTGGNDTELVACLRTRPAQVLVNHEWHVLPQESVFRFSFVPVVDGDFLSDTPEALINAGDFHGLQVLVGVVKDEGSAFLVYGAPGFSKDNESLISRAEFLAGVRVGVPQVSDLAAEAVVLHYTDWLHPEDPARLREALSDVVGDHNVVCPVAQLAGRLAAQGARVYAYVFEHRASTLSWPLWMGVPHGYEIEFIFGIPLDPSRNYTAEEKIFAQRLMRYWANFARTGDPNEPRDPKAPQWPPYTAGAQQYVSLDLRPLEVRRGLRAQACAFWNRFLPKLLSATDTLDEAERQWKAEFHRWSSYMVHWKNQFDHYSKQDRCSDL
UniProt P22303, 32-614: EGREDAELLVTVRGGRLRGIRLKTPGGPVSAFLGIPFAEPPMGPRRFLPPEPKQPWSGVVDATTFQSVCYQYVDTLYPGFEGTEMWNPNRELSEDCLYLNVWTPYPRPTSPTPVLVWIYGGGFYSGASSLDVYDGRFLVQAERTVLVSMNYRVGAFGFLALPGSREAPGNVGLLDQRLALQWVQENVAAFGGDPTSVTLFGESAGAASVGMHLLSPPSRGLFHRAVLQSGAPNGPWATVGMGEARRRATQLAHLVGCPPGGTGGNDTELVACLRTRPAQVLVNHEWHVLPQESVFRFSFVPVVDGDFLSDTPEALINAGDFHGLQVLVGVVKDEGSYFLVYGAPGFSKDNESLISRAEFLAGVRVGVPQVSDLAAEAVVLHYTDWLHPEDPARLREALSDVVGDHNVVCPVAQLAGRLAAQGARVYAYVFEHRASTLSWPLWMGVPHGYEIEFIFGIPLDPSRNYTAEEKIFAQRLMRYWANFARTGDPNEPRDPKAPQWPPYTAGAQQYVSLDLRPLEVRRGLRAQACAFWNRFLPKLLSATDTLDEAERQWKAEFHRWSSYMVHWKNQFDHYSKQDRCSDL
UniProt P22303, 32-614 Y164A: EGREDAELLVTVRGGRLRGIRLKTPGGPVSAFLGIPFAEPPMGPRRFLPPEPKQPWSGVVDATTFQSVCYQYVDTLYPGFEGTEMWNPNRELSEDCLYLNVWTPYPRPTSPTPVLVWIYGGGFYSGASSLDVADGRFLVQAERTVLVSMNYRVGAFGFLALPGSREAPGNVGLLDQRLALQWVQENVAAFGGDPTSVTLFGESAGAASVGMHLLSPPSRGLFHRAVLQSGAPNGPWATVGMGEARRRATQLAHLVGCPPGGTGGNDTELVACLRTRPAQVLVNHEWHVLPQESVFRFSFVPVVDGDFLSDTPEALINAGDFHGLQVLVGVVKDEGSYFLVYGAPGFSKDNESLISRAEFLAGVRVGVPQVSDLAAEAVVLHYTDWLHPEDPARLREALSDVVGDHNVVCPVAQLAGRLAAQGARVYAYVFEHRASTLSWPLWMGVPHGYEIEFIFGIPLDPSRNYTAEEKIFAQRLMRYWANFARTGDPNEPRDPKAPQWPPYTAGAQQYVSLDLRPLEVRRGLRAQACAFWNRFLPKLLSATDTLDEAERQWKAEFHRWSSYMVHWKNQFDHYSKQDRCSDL
UniProt P22303, 32-614 F326L/F328V: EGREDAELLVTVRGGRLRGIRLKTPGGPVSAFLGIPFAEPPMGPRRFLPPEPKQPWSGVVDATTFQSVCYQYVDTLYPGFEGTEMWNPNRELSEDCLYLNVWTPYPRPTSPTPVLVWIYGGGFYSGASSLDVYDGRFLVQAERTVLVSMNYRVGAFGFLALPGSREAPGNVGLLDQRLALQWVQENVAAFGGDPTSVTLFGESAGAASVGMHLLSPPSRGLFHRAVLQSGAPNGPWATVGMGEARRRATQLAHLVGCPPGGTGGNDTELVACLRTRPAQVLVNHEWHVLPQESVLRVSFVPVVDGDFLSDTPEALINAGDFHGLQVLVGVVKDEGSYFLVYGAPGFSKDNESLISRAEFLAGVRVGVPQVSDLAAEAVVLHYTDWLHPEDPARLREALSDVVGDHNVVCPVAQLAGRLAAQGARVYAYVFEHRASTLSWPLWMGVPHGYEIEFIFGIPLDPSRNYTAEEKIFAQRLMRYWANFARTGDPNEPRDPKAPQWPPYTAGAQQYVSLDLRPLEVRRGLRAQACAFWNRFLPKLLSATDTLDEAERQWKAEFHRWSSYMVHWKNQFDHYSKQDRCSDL
UniProt P22303, 32-614 E233A: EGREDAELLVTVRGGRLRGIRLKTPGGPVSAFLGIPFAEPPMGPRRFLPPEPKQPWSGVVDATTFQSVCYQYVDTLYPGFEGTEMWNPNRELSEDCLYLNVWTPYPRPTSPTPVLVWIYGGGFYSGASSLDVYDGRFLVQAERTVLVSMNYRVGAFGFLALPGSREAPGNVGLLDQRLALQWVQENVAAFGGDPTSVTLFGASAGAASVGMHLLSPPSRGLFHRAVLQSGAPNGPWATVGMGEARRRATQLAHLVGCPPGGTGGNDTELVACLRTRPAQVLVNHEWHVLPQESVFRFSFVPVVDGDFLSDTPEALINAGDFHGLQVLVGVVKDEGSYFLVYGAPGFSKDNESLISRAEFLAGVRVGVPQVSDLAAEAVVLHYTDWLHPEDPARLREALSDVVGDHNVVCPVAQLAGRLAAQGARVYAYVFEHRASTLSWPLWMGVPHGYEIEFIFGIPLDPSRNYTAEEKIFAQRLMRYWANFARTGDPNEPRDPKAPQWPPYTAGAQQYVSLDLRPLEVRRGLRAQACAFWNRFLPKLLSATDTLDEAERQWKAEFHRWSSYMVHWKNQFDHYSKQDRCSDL
UniProt P22303, 32-614 Y103N/Y155Q/W317A/F326L/F328V/Y368A: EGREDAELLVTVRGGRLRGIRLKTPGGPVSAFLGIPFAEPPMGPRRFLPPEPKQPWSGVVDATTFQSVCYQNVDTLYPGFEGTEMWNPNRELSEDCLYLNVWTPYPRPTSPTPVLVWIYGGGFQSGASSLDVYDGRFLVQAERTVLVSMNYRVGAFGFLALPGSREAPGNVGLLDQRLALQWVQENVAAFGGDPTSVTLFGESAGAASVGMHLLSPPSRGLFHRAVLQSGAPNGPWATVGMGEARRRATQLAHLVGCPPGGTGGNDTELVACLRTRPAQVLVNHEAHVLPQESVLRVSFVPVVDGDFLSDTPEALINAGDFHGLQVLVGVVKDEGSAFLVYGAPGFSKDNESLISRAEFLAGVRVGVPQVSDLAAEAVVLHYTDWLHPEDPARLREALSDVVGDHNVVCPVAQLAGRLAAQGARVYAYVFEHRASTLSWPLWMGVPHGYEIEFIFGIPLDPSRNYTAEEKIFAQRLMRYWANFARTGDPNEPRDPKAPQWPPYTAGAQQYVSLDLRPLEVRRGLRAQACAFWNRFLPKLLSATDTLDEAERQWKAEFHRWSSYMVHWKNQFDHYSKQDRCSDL
UniProt P22303, 32-614 W117A/Y368A: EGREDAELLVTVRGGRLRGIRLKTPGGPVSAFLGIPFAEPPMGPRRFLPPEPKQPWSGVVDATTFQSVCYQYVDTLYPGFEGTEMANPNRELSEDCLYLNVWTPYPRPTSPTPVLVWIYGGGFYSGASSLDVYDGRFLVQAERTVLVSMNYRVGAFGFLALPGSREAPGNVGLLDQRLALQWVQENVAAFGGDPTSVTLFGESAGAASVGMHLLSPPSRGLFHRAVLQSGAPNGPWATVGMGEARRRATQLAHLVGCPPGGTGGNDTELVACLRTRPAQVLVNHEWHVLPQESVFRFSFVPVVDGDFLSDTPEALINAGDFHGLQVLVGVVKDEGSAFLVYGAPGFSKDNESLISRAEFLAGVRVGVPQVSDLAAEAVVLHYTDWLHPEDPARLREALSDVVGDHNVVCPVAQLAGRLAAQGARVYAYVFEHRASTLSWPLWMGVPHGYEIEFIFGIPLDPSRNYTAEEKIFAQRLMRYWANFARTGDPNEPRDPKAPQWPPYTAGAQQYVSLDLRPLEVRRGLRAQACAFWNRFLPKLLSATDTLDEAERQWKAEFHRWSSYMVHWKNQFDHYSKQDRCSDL
UniProt P22303, 32-614 Y368F: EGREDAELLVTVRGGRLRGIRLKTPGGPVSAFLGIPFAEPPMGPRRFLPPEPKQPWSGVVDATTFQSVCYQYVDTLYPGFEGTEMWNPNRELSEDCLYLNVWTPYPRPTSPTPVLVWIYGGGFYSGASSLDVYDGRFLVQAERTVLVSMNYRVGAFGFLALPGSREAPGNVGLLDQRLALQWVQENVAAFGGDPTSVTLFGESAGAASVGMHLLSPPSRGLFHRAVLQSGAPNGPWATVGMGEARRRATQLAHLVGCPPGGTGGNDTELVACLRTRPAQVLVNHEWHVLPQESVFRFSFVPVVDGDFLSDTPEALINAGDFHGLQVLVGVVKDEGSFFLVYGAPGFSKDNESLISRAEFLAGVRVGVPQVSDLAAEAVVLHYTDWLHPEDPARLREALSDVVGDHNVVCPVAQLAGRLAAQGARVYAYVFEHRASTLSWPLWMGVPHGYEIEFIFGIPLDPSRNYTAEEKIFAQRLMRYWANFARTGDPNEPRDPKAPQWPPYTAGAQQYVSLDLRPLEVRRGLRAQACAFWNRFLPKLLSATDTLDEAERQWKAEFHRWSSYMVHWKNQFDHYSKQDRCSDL
UniProt P22303, 32-614 F326A/F369A: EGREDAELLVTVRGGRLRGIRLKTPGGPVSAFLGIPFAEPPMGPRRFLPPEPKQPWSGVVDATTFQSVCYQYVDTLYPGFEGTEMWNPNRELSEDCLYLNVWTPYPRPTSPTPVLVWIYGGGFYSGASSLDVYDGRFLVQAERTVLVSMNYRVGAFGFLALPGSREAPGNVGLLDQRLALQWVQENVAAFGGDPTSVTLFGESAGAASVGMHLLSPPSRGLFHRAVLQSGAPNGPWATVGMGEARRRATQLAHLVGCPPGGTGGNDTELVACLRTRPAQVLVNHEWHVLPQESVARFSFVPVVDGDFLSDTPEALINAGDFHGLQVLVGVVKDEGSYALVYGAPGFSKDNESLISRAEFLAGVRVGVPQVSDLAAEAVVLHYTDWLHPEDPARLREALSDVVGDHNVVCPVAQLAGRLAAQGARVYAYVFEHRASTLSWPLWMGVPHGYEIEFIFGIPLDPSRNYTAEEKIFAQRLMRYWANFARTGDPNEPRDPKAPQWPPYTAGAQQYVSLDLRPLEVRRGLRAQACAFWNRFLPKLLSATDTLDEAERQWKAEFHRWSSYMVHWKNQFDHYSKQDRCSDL

As usually defined, the Kd is a measure of binding affinity in units of concentration.

Holding throughout (format): biochemical
One test deals with F338A HuAChE (Homo sapiens, UniProt P22303, F369A). Put plainly: HuAChE inhibition kinetics. The note with it: read-out: Kd, noncovalent inhibition (competition with ATC).
For the next test, the target named is W86A HuAChE (Homo sapiens, UniProt P22303, W117A). Put plainly: HuAChE inhibition kinetics. Particulars: read-out: Kd, noncovalent inhibition (competition with ATC).
A further test has as its target Y337A HuAChE (Homo sapiens, UniProt P22303, Y368A). Put plainly: HuAChE inhibition kinetics. Particulars: read-out: Kd, noncovalent inhibition (competition with ATC).
For another test, the target named is Wild Type HuAChE (Homo sapiens, UniProt P22303). Put plainly: HuAChE inhibition kinetics. Particulars: read-out: Kd, noncovalent inhibition (competition with ATC).
Another test concerns the target Y133A HuAChE (Homo sapiens, UniProt P22303, Y164A). Put plainly: HuAChE inhibition kinetics. The note with it: read-out: Kd, noncovalent inhibition (competition with ATC).
Another test deals with F295L/F297V HuAChE (Homo sapiens, UniProt P22303, F326L/F328V). Put plainly: HuAChE inhibition kinetics. The note with it: read-out: Kd, noncovalent inhibition (competition with ATC).
Another test has as its target E202A HuAChE (Homo sapiens, UniProt P22303, E233A). Put plainly: HuAChE inhibition kinetics. The note with it: read-out: Kd, noncovalent inhibition (competition with ATC).
Test [1] concerns the target Y72N/Y124Q/W286A/ F295L/F297V/Y337A HuAChE (Homo sapiens, UniProt P22303, F326L/F328V/W317A/Y103N/Y155Q/Y368A). Put plainly: HuAChE inhibition kinetics. The note with it: read-out: Kd, noncovalent inhibition (competition with ATC), no carbamylation.
Another test addresses W86A/Y337A HuAChE (Homo sapiens, UniProt P22303, W117A/Y368A). The note with it: read-out: Kd, noncovalent inhibition (competition with ATC).
For another test, the target named is Y337F HuAChE (Homo sapiens, UniProt P22303, Y368F). Put plainly: HuAChE inhibition kinetics. The note with it: read-out: Kd, noncovalent inhibition (competition with ATC).
A further test has as its target F295A/F338A HuAChE (Homo sapiens, UniProt P22303, F326A/F369A). Put plainly: HuAChE inhibition kinetics. The note with it: read-out: Kd, noncovalent inhibition (competition with ATC), no carbamylation.
Another test deals with D74N HuAChE (Homo sapiens, UniProt P22303, D105N). Put plainly: HuAChE inhibition kinetics. The note with it: read-out: Kd, noncovalent inhibition (competition with ATC).
The next test concerns the target F295A/F338A/V407F HuAChE (Homo sapiens, UniProt P22303, F326A/F369A/V438F). Put plainly: HuAChE inhibition kinetics. Particulars: read-out: Kd, noncovalent inhibition (competition with ATC).
The target of the next test is F295L/F297V/Y337A HuAChE (Homo sapiens, UniProt P22303, F326L/F328V/Y368A). Put plainly: HuAChE inhibition kinetics. The note with it: read-out: Kd, noncovalent inhibition (competition with ATC).
The next test addresses Y341A HuAChE (Homo sapiens, UniProt P22303, Y372A). Put plainly: HuAChE inhibition kinetics. Particulars: read-out: Kd, noncovalent inhibition (competition with ATC).
A further test concerns the target W86F HuAChE (Homo sapiens, UniProt P22303, W117F). Put plainly: HuAChE inhibition kinetics. Particulars: read-out: Kd, noncovalent inhibition (competition with ATC).
The next test has as its target Y72N HuAChE (Homo sapiens, UniProt P22303, Y103N). Put plainly: HuAChE inhibition kinetics. Particulars: read-out: Kd, noncovalent inhibition (competition with ATC).
The target of a further test is F295A HuAChE (Homo sapiens, UniProt P22303, F326A). Put plainly: HuAChE inhibition kinetics. Particulars: read-out: Kd, noncovalent inhibition (competition with ATC).
For test [2], the target named is Y72N/Y124Q/W286A/ F295L/F297V/Y337A/ V407F HuAChE (Homo sapiens, UniProt P22303, F326L/F328V/V438F/W317A/Y103N/Y155Q/Y368A). Put plainly: HuAChE inhibition kinetics. The note with it: read-out: Kd, noncovalent inhibition (competition with ATC), no carbamylation.
Another test concerns the target F297A HuAChE (Homo sapiens, UniProt P22303, F328A). Put plainly: HuAChE inhibition kinetics. The note with it: read-out: Kd, noncovalent inhibition (competition with ATC).
The next test has as its target F295A/F297A HuAChE (Homo sapiens, UniProt P22303, F326A/F328A). Put plainly: HuAChE inhibition kinetics. The note with it: read-out: Kd, noncovalent inhibition (competition with ATC).
For a further test, the target named is Y133F HuAChE (Homo sapiens, UniProt P22303, Y164F). Put plainly: HuAChE inhibition kinetics. Particulars: read-out: Kd, noncovalent inhibition (competition with ATC).

Turning to `CC(C)c1ccc(NC(=O)Oc2ccc3c(c2)[C@]2(C)CCN(C)[C@@H]2N3C)cc1` [(+)-Cymserine, cymserine], the Kd on F338A HuAChE is 13500 ± 1400 nM; on W86A HuAChE, 13000 ± 5800 nM; on Y337A HuAChE, 5000 ± 1300 nM; on Wild Type HuAChE it was 30000 ± 7600 nM; at Y133A HuAChE it was 480000 ± 190000 nM.
On to `CC(C)c1ccc(NC(=O)Oc2ccc3c(c2)[C@]2(C)CCN(C)[C@@H]2N3C)cc1` [(−)Cymserine, cymserine], for which the Kd at F338A HuAChE was determined as 4000 ± 1800 nM; at W86A HuAChE it was 5400 ± 1200 nM; on F295L/F297V HuAChE, 100 ± 5 nM; on E202A HuAChE it was 12000 ± 5000 nM; in [1], 230 ± 50 nM; on W86A/Y337A HuAChE it was 47000 ± 12700 nM. The dissociation constant Kd at Y337A HuAChE is 380 ± 90 nM; at Wild Type HuAChE, 630 ± 70 nM; at Y337F HuAChE, 300 ± 30 nM; at F295A/F338A HuAChE, 130 ± 30 nM; at D74N HuAChE, 870 ± 350 nM; at F295A/F338A/V407F HuAChE, 2200 ± 500 nM. The Kd was 270 ± 80 nM on F295L/F297V/Y337A HuAChE; 190 ± 50 nM at Y341A HuAChE; 22000 ± 10000 nM at Y133A HuAChE; 150 ± 50 nM at W86F HuAChE; 290 ± 110 nM at Y72N HuAChE; 40 ± 10 nM on F295A HuAChE. For the same molecule, the dissociation constant Kd in test [2] worked out at 2000 ± 400 nM; on F297A HuAChE, 750 ± 140 nM; at F295A/F297A HuAChE it was 160 ± 30 nM; at Y133F HuAChE, 3700 ± 1300 nM.
